Our source for the IC50 values is ChEMBL document CHEMBL1140158, “Soluble 3',6-substituted indirubins with enhanced selectivity toward glycogen synthase kinase -3 alter circadian period” (J Med Chem, 2008).

Experiment [1] relates to Glycogen synthase kinase-3 (Sus scrofa). Put plainly: Inhibition of pig GSK3alpha/beta.
Experiment [2] can be described thus: Inhibition of human recombinant CDK5/p25 expressed in Escherichia coli.

Molecule `O=C1Nc2cc(Br)ccc2/C1=C1/Nc2ccccc2/C1=N\OCCN1CCNCC1` registered a concentration for half-maximal inhibition (IC50) in experiment [1] of 3.3 nM. `CN(C)CCO/N=C1/C(=C2/C(=O)Nc3cc(Br)ccc32)Nc2ccccc21.Cl`: in experiment [2], the half-inhibitory concentration (IC50) was 53 nM. The molecule `Cl.Cl.O=C1Nc2cc(Br)ccc2/C1=C1/Nc2ccccc2/C1=N\OCCN1CCNCC1` yielded a concentration for half-maximal inhibition (IC50) in experiment [1] of 1.3 nM.

What is called IC50 is the concentration needed to halve the response being measured.
